From publication PMC8706783 (Pharmaceutics, 2021)

Target: T1, CYP1B1 (Homo sapiens, UniProt Q16678)
T1 construct: purchased Corning Inc
T1 sequence (Q16678 1-543): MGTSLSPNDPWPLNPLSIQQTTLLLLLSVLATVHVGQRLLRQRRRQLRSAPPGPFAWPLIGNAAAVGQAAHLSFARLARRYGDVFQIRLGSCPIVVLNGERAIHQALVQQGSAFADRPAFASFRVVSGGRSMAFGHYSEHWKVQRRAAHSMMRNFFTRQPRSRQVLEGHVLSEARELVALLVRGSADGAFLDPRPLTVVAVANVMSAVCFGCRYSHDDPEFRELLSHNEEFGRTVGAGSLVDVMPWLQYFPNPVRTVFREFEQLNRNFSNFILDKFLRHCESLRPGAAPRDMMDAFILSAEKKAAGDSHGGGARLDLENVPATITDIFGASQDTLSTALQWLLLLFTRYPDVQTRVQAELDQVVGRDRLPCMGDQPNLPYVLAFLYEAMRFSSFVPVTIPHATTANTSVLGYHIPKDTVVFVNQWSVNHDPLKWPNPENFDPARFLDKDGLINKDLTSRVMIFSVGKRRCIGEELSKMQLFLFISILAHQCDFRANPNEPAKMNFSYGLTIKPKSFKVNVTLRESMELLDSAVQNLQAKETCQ
Test: Enzyme inhibition assay, CYP1B1
Type: in vitro ADME
Conditions: Recombinant CYP1B1; 7-ethoxyresorufin O-deethylation

`COc1cc(C=Cc2ccc(OC)cc2OC)cc(OC)c1` [2,4,3′,5′-tetramethoxystilbene] was tested. Which IC50 did it give?
The IC50 was 220 nM.
